## Antibody variant affinities, Ab-14 light chain, assay 1

Source: Engelhart et al. 2022 (doi:10.1038/s41597-022-01779-4), MIT Lincoln Laboratory and A-Alpha Bio; data file from the FLAb repository.

Antigen: PDVDLGDISGINAS, a 14-residue peptide of the SARS-CoV-2 spike HR2 region.

Parent scFv Ab-14: VH joined to VL by a 15-residue (Gly4Ser)3 linker. Changes lie in the light chain CDRs alone.
VH: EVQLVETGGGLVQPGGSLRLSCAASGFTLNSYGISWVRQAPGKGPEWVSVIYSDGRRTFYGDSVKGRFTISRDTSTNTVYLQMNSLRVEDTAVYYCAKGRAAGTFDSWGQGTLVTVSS
VL: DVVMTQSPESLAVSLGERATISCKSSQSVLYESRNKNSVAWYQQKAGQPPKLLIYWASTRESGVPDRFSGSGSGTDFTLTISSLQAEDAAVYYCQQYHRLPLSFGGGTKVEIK

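Phage display of a naive human antibody library on the peptide gave the parent. The library (AAYL50) carries one to three amino acid substitutions per variant, with no insertions or deletions. AlphaSeq pools MATa yeast showing the antibodies with MATalpha yeast showing the peptide. The frequency of each diploid, read from paired DNA barcodes, reflects how well the two displayed proteins bind. The ratio of observed to expected reads was calibrated, replicate by replicate, on BCL2-family standards whose Kd was known from biolayer interferometry. Mating was done three times.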

Changes read parent residue, position, new residue, counted from the first residue of the VL shown. Scale: log10 of Kd in nM, estimated from mating counts; low values are strong binders. "nd" means that the variant was in the library but no mating with the target was seen in that replicate; the authors take this as a sign of poor binding, and no number exists.

changes	log10 Kd, replicates	control signals
S26R+Q95D+L100Q	2.72 2.06 2.60	1/9 (5.47)
S26T+N37R+A57F	3.77 nd nd	4/9 (4.20)
N35T+R60F+E61S	3.13 4.84 nd	3/9 (4.22)
L30S+Y31I+S33R	nd nd nd	0/9
N37V+Y97F+R99V	nd nd 4.02	0/9
N35I+W56V	nd nd nd	0/9
R34W+V39H+Y97L	nd nd nd	3/9 (3.52)
E32P+A57Q+H98C	2.18 2.03 2.96	0/9
S28M+R34Y+Y97T	1.99 2.16 2.07	2/9 (4.23)
K36E+S38I+H98E	nd nd nd	0/9
Q27I+Q95H+Y97M	3.16 2.87 2.53	0/9
E32Y+S58C+Q96V	4.43 4.08 nd	5/9 (4.01)
V29P+W56V+R99D	3.72 nd nd	1/9 (1.30)
K24E+N35I+A57L	4.50 nd nd	5/9 (3.92)
Y31P+T59S+S62D	1.42 1.31 1.47	0/9
S58Y+T59S+S103L	nd nd nd	0/9
L30Y+A57L+R99V	nd 3.19 nd	0/9
Q27N+V29H+S38E	1.26 1.42 1.81	2/9 (3.92)
S25R+N37I+L102F	nd nd nd	4/9 (4.00)
S28C+S38I	nd nd nd	0/9
S33T+A40L+R99F	nd nd nd	0/9
V39D+E61A+Q95V	nd nd nd	0/9
E32L+E61V+Q96Y	nd nd nd	0/9
N35W+S38C+L102Y	nd 3.11 2.47	3/9 (3.66)
L30E+N35H+R60F	nd nd nd	3/9 (4.27)
R34P+W56P+A57S	3.57 nd nd	0/9
S38V+A40Q+Q95S	nd nd nd	2/9 (3.30)
S26L+S33A	1.44 1.40 1.36	3/9 (3.82)
S33N+E61V+Q96F	0.88 1.09 0.94	1/9 (5.31)
S26I+N35W+R60Y	nd nd nd	1/9 (2.92)
S25K+Y31T+S58K	3.50 3.76 3.13	4/9 (4.78)
V29P+L30E+T59F	0.93 1.16 0.98	1/9 (3.26)
S25W+W56K+Q95V	0.99 1.02 1.33	6/9 (4.44)
S25C+V29Q+A40R	nd 5.24 nd	5/9 (4.04)
S26K+A57W+S58V	nd nd nd	2/9 (3.03)
S38I+E61G+L100N	nd nd nd	0/9
S58E	0.78 1.43 0.89	0/9
A57I+S58K+R60D	nd nd nd	3/9 (3.64)
E32T+S33Y+R60I	nd 3.91 nd	0/9
Y31M+E32Y+V39G	nd nd nd	3/9 (4.28)
V29W+S58E+R60L	1.36 1.65 2.04	2/9 (4.33)
R34D+H98P	1.32 1.42 1.90	5/9 (4.28)
S38Q+S58I+R60S	nd nd nd	0/9
L30M+S62K+Q95D	nd nd nd	0/9
E32F+E61R+H98Y	nd nd nd	1/9 (3.08)
L30P+A57E	nd nd nd	0/9
N35G+A57E+P101F	nd nd nd	0/9
S33Q+A40T+E61Y	nd nd nd	0/9
S28T+E32Q+Q96C	2.25 2.88 4.25	2/9 (3.15)
K24A+V29N+R99Y	nd nd nd	0/9

The first 8 variants above that were never detected:

changes,"log10 Kd, replicates",control signals
L30S+Y31I+S33R,nd nd nd,0/9
N35I+W56V,nd nd nd,0/9
R34W+V39H+Y97L,nd nd nd,3/9 (3.52)
K36E+S38I+H98E,nd nd nd,0/9
S58Y+T59S+S103L,nd nd nd,0/9
S25R+N37I+L102F,nd nd nd,4/9 (4.00)
S28C+S38I,nd nd nd,0/9
S33T+A40L+R99F,nd nd nd,0/9

Background: pairings of library AAYL50 with three empty control strains gave a value in 18% of cases (median 4.19, 5th percentile 2.99). Values in that range, when seen in few replicates, are hard to tell from nonspecific mating. The control count says in how many pairings with the empty strains this scFv gave a signal, with their mean in brackets.